Test results from US20030109523A1, “Bicyclic antagonists selective for the alphavbeta3 integrin” (Wyeth, priority 1999, published 2003).

Amino acid sequences for entries named in this document (tags omitted). Residues count along the entry.
UniProt P05106, 27-788: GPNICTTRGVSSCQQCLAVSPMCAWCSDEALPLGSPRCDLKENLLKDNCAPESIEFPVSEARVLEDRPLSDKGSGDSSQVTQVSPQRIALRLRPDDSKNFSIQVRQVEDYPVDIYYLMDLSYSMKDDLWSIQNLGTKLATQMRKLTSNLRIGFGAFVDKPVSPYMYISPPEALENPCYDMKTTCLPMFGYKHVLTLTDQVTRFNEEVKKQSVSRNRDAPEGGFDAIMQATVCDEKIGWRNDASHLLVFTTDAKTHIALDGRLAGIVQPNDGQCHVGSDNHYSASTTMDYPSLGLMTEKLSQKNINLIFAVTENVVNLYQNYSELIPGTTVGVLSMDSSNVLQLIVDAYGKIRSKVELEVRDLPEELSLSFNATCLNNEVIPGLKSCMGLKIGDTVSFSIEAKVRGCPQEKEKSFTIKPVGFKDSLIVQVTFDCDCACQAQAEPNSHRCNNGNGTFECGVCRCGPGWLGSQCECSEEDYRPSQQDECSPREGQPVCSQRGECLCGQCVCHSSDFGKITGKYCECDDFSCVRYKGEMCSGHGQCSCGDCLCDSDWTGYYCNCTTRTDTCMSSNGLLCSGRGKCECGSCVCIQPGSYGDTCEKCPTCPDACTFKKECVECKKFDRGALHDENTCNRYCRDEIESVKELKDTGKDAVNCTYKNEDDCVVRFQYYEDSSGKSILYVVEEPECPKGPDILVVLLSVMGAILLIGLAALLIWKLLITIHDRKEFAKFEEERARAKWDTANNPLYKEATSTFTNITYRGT
UniProt P08514, 32-887 limits assumed: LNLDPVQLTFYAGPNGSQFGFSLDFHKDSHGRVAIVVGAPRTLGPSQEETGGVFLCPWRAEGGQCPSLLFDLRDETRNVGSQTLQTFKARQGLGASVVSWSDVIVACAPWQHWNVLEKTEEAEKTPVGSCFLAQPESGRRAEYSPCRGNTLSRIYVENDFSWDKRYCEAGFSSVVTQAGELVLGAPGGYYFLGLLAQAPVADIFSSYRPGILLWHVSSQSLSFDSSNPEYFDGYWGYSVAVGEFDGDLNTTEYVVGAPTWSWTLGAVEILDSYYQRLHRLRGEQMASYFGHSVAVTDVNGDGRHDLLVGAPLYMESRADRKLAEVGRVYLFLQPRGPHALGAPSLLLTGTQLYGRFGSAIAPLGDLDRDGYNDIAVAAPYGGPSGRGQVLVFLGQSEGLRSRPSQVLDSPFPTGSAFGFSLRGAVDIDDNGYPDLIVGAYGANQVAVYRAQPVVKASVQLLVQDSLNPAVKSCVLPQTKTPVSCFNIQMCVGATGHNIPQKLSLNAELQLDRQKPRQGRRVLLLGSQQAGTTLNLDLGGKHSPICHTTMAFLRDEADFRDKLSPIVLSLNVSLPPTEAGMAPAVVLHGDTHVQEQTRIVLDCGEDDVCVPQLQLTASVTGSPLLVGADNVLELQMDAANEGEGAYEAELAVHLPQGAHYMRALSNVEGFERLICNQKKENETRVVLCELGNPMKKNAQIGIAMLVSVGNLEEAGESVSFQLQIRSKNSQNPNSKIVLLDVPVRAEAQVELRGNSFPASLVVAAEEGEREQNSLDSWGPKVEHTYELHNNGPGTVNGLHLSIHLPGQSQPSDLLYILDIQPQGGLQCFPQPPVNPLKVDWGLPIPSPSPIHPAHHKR
UniProt P08514, 891-1039 partner limits assumed: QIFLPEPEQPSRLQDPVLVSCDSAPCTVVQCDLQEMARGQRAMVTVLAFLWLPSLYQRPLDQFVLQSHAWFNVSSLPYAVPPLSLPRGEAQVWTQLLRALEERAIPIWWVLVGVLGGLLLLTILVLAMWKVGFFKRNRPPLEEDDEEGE
UniProt P06756, 891-1048 partner limits assumed: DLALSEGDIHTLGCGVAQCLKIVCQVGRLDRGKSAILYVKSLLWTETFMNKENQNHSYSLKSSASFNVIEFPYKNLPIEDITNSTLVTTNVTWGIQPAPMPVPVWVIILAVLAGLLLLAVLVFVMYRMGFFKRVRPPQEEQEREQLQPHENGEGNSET
UniProt P06756, 31-889 limits assumed: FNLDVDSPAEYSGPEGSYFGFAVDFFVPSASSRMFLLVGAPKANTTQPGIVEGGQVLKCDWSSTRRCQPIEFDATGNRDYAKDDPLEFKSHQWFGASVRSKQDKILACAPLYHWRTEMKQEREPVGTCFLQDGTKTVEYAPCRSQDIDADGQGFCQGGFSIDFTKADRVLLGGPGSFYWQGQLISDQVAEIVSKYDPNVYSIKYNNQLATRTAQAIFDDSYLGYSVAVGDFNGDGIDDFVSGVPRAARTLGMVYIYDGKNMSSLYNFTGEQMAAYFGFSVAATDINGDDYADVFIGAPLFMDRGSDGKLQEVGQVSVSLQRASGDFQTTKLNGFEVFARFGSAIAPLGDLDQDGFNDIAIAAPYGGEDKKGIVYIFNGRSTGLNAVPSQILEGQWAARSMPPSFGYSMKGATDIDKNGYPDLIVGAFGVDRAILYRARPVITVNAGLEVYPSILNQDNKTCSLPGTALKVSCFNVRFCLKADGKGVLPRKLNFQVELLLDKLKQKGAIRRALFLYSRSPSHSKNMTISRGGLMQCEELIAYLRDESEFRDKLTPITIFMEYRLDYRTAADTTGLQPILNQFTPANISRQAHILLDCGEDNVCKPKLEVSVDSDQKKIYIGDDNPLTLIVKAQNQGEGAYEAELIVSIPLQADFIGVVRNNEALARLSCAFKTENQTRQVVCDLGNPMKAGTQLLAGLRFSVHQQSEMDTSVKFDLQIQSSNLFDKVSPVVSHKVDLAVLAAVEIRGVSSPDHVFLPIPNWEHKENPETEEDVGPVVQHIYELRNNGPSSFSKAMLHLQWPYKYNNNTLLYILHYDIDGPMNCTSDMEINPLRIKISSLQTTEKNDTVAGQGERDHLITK

Columns and labels:
αIIbβ3 integrin = biological target: T1, αIIbβ3 integrin (Homo sapiens, UniProt P05106+P08514); test: ADP-Induced Platelet Aggregation; type: cell-based; conditions: reference compounds, Table VI; ADP 20 uM, human platelets; read-out: IC50 (95% Confidence Interval)
T1 construct: Human Platelets: Platelet-enriched plasma was obtained commercially from a donor pool; from tissue; host or cells: human platelet-rich plasma from a commercial donor pool
Protocol: Measurement of the Effect of Compounds on ADP-Induced Platelet Aggregation
Measuring the effect of compounds on ADP-induced platelet aggregation mediated by a fibrinogen-αIIbβ3 integrin interaction.
Human Platelets: Platelet-enriched plasma was obtained commercially from a donor pool. The plasma was tested prior to shipment and found to be negative for HIV, HCV and Hepatitis B. Platelet-rich plasma (PRP) was obtained by diluting plasma to an approximate final concentration of 3×10(6) platelets per mL in platelet poor plasma (PPP). PPP was the supernatant of a lowspeed centrifugation of plasma.
Adenosine diphosphate (ADP): ADP was obtained commercially and diluted to 1 mM (stock solution) in distilled, deionized water (ddH2O).
Incubation: PRP and PPP were prewarmed in a water bath at 37° C. […] PRP plus sample compound in a final volume of 500 uL was added to a pre-warmed cuvette in a ChronoLog aggregometer. […]
Aggregation: To begin the test, ADP was added yielding a final concentration of 20 uM to both samples (plus and minus sample compound). Light transmittance was monitored continuously and compared to the reference cuvette. After five minutes, the test was terminated and the slope and maximal amplitude of the resulting aggregation plot was calculated by the aggregometer. […]

[1] = biological target: T2, Vitronectin Receptor (αVβ3) (Homo sapiens, UniProt P05106+P06756); test: Vitronectin Receptor (αVβ3) Binding Test Procedure; conditions: reference RGD peptides; 125I-Echistatin 50 pM
T2 construct: expressed in transfected cells; host or cells: 512P5 cells (plasma membrane preparation)

αVβ3 integrin = biological target: T3, αVβ3 integrin (Homo sapiens, UniProt P05106+P06756); test: Osteopontin-αVβ3 Cell Attachment Test Procedure; type: cell-based; conditions: reference peptides; SK-MEL-24 human malignant melanoma cell line; read-out: IC50 (95% Confidence Interval)
T3 construct: αVβ3-expressing cell lines are maintained by standard tissue culture techniques; endogenous in cells; host or cells: αVβ3-expressing cell lines
Protocol: Osteopontin-αVβ3 Cell Attachment Test Procedure
Measuring the effect of compounds on the RGD-dependent attachment of cells to osteopontin mediated by the αVβ3 integrin.
Following incubation the wells were aspirated and washed once with D-PBS; plates can either be used immediately or stored for up to 1 week at 4° C. Prior to assay, the wells were blocked with 1% bovine serum albumin (BSA) in cell suspension media for 1 hour at 37° C. Following the blocking period, wells were aspirated and washed once with D-PBS.
αVβ3-expressing cell lines are maintained by standard tissue culture techniques. […] The cells were pelleted by low-speed centrifugation and washed three times with 0.5 mg/mL trypsin inhibitor in D-PBS (Sigma). The final cell pellet was resuspended in cell suspension media at a concentration of 10^6 cells/mL.
Incubation: 100 μL of diluted test compound was added to osteopontin-coated wells (in triplicate) followed by 100 μL of cell suspension; background cell attachment was determined in uncoated wells. […]
Cell Number Detection: The number of cells attached was determined by an MTT dye conversion assay (Promega) according to the manufacturer's instructions. […]
The individual well optical density was expressed as a percentage of the maximal attachment (% Max) wells minus background attachment, and reported as the mean ±standard deviation.

**Q.** For `NCC(=O)N[C@@H](CCCN=C(N)N)C(=O)NCC(=O)N[C@@H](CC(=O)O)C(=O)N[C@@H](Cc1ccccc1)C(=O)O` [GRGDF, reference compound], which IC50 (αIIbβ3 integrin) is on record?
**A.** The IC50 was 53.2 µM.

**Q.** How did the IC50 [1] turn out when `N=C(N)NCCC[C@H](NC(=O)CN)C(=O)NCC(=O)N[C@@H](CC(=O)O)C(=O)N[C@@H](CO)C(=O)O` [GRGDS, reference compound] was run?
**A.** The IC50 was 0.751 µM.

**Q.** Which results are given for `CNCC(=O)N[C@@H](CCCNC(=N)N)C(=O)NCC(=O)N[C@@H](CC(=O)O)C(=O)N[C@@H](CO)C(=O)N1CCC[C@H]1C(=O)O` [n-Me-GRGDSP, reference compound]?
**A.** IC50 (αIIbβ3 integrin): 208 µM; IC50 (αVβ3 integrin): 4 µM
